# E-selectin induc = induces E-selectin expression in human endothelial cells; P16581; HUVEC E-selectin immunofluorescence imaging; normalized: neutral wells 0, TNF-alpha wells 100; activation, % at 7.58 µM; actives 0.37% (n = 260,000); AID 686992;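 active = mean E-selectin-positive cell signal at least 10% of the positive control, reached in at least 60% of replicates, without over 20% cell loss; inconclusive = no rule given, readout overlaps actives, possibly toxicity-flagged; inactive = the rest, including those meeting only one limit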
#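 assay system = HUVEC, human umbilical vein endothelial cells | input = 3,000 HUVEC seeded per well | medium = EGM-2 growth medium on 0.1% gelatin-coated wells | dosing = one compound dose added by pin transfer | signal = immunofluorescence imaging | read-out basis = % PE-positive cells | control set = TNF-alpha, DMSO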
# DENV2 CPE rescue = inhibitors of DENV2 cytopathic effect | DENV2-infected cells, cytopathic effect rescue, plate reader | AID 651640 | CPE inhibition, % at 9.99 µM | actives 1.7% (n = 350,000); in the data active = CPE inhibition above about 20%, passing the limit was not always enough; inconclusive = no clear call, values can overlap the other calls; tested in BHK-21 cells;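 note: 0% = median of neutral control wells and 100% = median of positive control wells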
# UUG fidelity = alters start codon recognition fidelity in yeast. S. cerevisiae UUG-firefly luciferase reporter, luminescence/redox ratio. activity score, % at 18.7 µM. 0.13% of 350,000 active. AID 602363;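 active = replicate mean at a twofold rise or more, about +100% in these data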;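 also: firefly luciferase made from a UUG start codon reports start codon fidelity; reporter light over untreated wells divided by growth signal over untreated wells; some hits fall short of that in this replicate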
# Cneo AK release = Cryptococcus neoformans lysis via adenylate kinase release. C. neoformans lysis, adenylate kinase release luminescence, 4 h; normalised: neutral wells 0, clomiphene wells 100. lysis activity, % at 15 µM. actives 0.2% (n = 360,000). AID 651654;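 active = mean lysis activity across replicates of at least 80%, whatever share of replicates individually reach that level; inactive = mean lysis activity below 80%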
#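 Assay system: Cryptococcus neoformans yeast cells / Dosing: single-point compound dose / Timing: 4 h at 37 °C static, read 1 h later / Measured by: luminescence of released adenylate kinase using an AK detection reagent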
# Starred values were filed as active, the others as inactive; ? = inconclusive; . = no result. The list is not random: actives were taken first. Their share in the collection is about 1.8%.
1) N#CCC(=O)N1CCN(C(c2ccccc2)c2ccccc2)CC1
2) O=C(COc1ncnc2sccc12)NC1CCS(=O)(=O)C1 (centres undefined)
3) Cc1ccsc1C(=O)OCC(=O)NC1CCS(=O)(=O)C1 (centres undefined)
4) CC(=O)C1=C(C)Nc2ncnn2C1c1ccc(O)cc1 (centres undefined)
5) C[C@@H]1CCCCO[C@H](CN(C)C(=O)CCCN(C)C)[C@@H](C)CN([C@@H](C)CO)C(=O)c2cc(NC(=O)Nc3cccc4ccccc34)ccc2O1
6) C[C@@H]1CCCCO[C@H](CN(C)Cc2ccc(C(F)(F)F)cc2)[C@H](C)CN([C@H](C)CO)C(=O)c2cc(NS(C)(=O)=O)ccc2O1
7) CC1CN(S(=O)(=O)c2ccc(F)cc2)C(C)N1C(=O)N1CCOCC1 (centres undefined)
8) Cc1[nH]c2ccccc2c1/C=N/NC(=O)c1cccc([N+](=O)[O-])c1
Assay by compound	1	2	3	4	5	6	7	8
E-selectin induc	.	0	3	44*	0	0	26*	57*
DENV2 CPE rescue	-2	28*	2	12	-4	.	-4	1
UUG fidelity	-7	-10	.	-17	15	8	-6	.
Cneo AK release	-1	3	.	-2	7	4	2	.

9) CCc1cc(Cn2nc(-c3ccccc3)cc2C(=O)NCC2CC2)on1
10) COc1ccc(CCN(C)C(=O)CSc2nc3ccccc3c(=O)n2CC2CCCO2)cc1OC (centres undefined)
11) Cc1c(C(N)=O)sc(N)c1C(=O)OC(C)C
12) Cc1c(C(=O)OC(C)C)sc(N)c1C(=O)OC(C)C
13) COc1ccc(N2C(=O)c3ccccc3C(C)(C)C2=O)cc1
14) COc1ccc2c(c1)C(=O)N(c1ccccc1C)C(=O)C2(C)C
15) O=C(O)CCC(=O)NCC(=O)c1ccc(F)cc1
16) O=C(O)CCC(=O)Nc1ccc(F)cc1
Assay by compound	9	10	11	12	13	14	15	16
E-selectin induc	0	0	.	.	45*	0	70*	.
DENV2 CPE rescue	48*	21*	.	48*	11	-11	-3	.
UUG fidelity	-6	-4	-10	.	-21	.	-11	-2
Cneo AK release	0	-1	-3	.	0	.	-1	0

17) CCCNC(=O)[C@@H]1c2ccccc2C(=O)N(Cc2ccccc2OC)[C@H]1c1ccc(CO)cc1
18) CCCNC(=O)N1CC2(CN(C(=O)COC)C2)c2c(n(C)c3cc(OC)ccc23)[C@H]1CO
19) CN1C(=O)c2cc(NC(=O)Nc3ccccc3F)ccc2OC[C@H]2O[C@@H](CC(=O)NCc3ccc(-c4ccccc4)cc3)CC[C@H]21
20) CN1C(=O)c2cc(NC(=O)Nc3ccccc3F)ccc2OC[C@H]2O[C@H](CC(=O)NCc3ccc(-c4ccccc4)cc3)CC[C@@H]21
21) CN1C(=O)c2cc(NS(C)(=O)=O)ccc2OC[C@@H]2O[C@H](CC(=O)NCc3ccc(-c4ccccc4)cc3)CC[C@H]21
22) CN1C(=O)c2cc(NS(C)(=O)=O)ccc2OC[C@@H]2O[C@H](CC(=O)NCc3ccc(-c4ccccc4)cc3)CC[C@@H]21
23) CCNC(=O)Nc1ccc2c(c1)C(=O)N(C)[C@@H]1CC[C@H](CC(=O)NCc3ccccc3F)O[C@H]1CO2
24) COc1ccc(NC(=O)Nc2ccc3c(c2)CC(=O)N([C@@H](C)CO)C[C@@H](C)[C@H](CN(C)C(=O)Nc2ccccc2)O3)cc1
Assay by compound	17	18	19	20	21	22	23	24
E-selectin induc	.	0	0	0	1	65*	0	0
DENV2 CPE rescue	34*	-3	48*	?	-3	0	71*	16
UUG fidelity	-2	.	-10	-13	.	.	4	-5
Cneo AK release	-2	.	-7	1	2	-5	6	-1

25) C[C@H](CO)N1C[C@H](C)[C@H](CN(C)C(=O)CCCN(C)C)OCCCC[C@H](C)Oc2ccc(NS(=O)(=O)c3cn(C)cn3)cc2C1=O
26) Cc1nc2cc(NC(=O)Nc3cccc([N+](=O)[O-])c3)ccc2n1C
27) CC(=O)c1ccc(NC(=O)Nc2ccc3c(c2)nc(C)n3C)cc1
28) NC(=O)C1CCN(C(=O)C2(NC(=O)Nc3cccc(F)c3)CCCCC2)CC1
29) O=C(C[C@@H]1CC[C@H]2[C@@H](COC[C@@H](O)CN2C(=O)C2CCCC2)O1)NCc1ccncc1
30) O=C(C[C@H]1CC[C@@H]2[C@H](COC[C@@H](O)CN2C(=O)c2cnccn2)O1)NCc1ccc(Oc2ccccc2)cc1
31) CCNC(=O)C[C@H]1CC[C@H]2[C@@H](COC[C@@H](O)CN2C(=O)C2CCCC2)O1
32) O=C(C[C@H]1CC[C@H]2[C@@H](COC[C@@H](O)CN2C(=O)c2cnccn2)O1)NCc1ccc(Oc2ccccc2)cc1
Assay by compound	25	26	27	28	29	30	31	32
E-selectin induc	0	.	0	.	0	0	0	0
DENV2 CPE rescue	-2	35*	-4	45*	-5	-7	107*	-3
UUG fidelity	17	-32	.	-17	6	.	-11	.
Cneo AK release	-3	-7	.	1	-2	105*	-2	0

# Profiles from above.
# CCNC(=O)C[C@H]1CC[C@H]2[C@@H](COC[C@@H](O)CN2C(=O)C2CCCC2)O1 as listed: E-selectin induc: 0; DENV2 CPE rescue: 107*; UUG fidelity: -11; Cneo AK release: -2
# O=C(C[C@@H]1CC[C@H]2[C@@H](COC[C@@H](O)CN2C(=O)C2CCCC2)O1)NCc1ccncc1 as listed: E-selectin induc: 0; DENV2 CPE rescue: -5; UUG fidelity: 6; Cneo AK release: -2

# Screening results: PubChem BioAssay, Broad Institute
